Reference: patent publication US20140171466A1, “PAIN MANAGEMENT IN SICKLE CELL ANEMIA” (priority 2012, published 2014)
pEC50: −log10 of the molar value.

Amino acid sequences for entries named in this document (tags omitted).
UniProt P35372, whole entry: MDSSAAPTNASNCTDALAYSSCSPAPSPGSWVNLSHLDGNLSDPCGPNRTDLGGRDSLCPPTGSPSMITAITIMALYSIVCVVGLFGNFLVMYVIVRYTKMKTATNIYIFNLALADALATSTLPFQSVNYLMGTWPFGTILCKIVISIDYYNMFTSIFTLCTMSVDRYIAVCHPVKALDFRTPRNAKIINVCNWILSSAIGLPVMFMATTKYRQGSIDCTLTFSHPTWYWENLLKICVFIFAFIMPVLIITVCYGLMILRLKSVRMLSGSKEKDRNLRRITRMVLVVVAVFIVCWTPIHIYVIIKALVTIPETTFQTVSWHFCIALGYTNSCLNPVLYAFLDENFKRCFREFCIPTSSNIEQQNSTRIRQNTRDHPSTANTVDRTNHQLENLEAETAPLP

Tests used:
[1] = molecular target: mu opioid receptor (Homo sapiens, UniProt P35372); assay: [35S]GTPγS binding assay μ; details: read-out: [35S]GTPγS μ EC50
[2] = system: mice; assay: Development of analgesic tolerance, acute pain tail-flick assay; details: 1 mg/kg, after 10 days of daily dosing

For CC(C)C1CCC(N2CCC(N3C(=O)Cc4ccccc43)CC2)CC1 (stereo not shown), the pEC50 [1] was 7.14 and the “tail-flick latency after repeated dosing (analgesic tolerance)” value [2] was “maintains its tail-flick latency”.
Molecule O=C1Cc2ccccc2N1C1CCN(C2CCCCCCC2)CC1 [Compound 3, 1-(1-cyclooctylpiperidin-4-yl)-indolin-2-one] has a pEC50 [1] of 7.00.
O=C1Cc2ccccc2N1C1CCN(C2C3CCCC2CCC3)CC1 (stereo not shown) gave a pEC50 [1] of 7.52.
